Test results: patent US9459246B2, “Induced intercellular communication” (Nodality, Inc., priority 2009, dated 2016)

System: PBMCs
Assay: SCNP signaling in LPS-treated PBMCs with inhibitors (Example 14, FIGS. 22, 23)
Settings: LPS plus inhibitor, 2 hours

C[C@@H]1CCN(C(=O)CC#N)C[C@@H]1N(C)c1ncnc2[nH]ccc12 [Tofacitinib]
inhibition of p-STAT1 in CD4+ T cells: 102%
